In PMC11160895, “Dynamic allostery in the peptide/MHC complex enables TCR neoantigen selectivity” (Research Square, 2024):

Experiments:
[1] = system: T cells transduced with TCR3; experiment: T cell TNF-α production, TCR3 T cells co-cultured with HLA-A3+ antigen presenting cells; format: cell-based; conditions: co-culture with HLA-A3+ antigen presenting cells, E:T 1:1, 6 h; two independent experiments with three biological replicates
[2] = system: T cells transduced with TCR4; experiment: T cell TNF-α production, TCR4 T cells co-cultured with HLA-A3+ antigen presenting cells; format: cell-based; conditions: co-culture with HLA-A3+ antigen presenting cells, E:T 1:1, 6 h; two independent experiments with three biological replicates
[3] = system: PIK3CA mutant tumors; conditions: wild-type PIK3CA tumor cells unharmed; cited from earlier work
Text: We recently described a panel of TCRs that recognize a public neoantigen resulting from a hotspot mutation in the phosphoinositide 3-kinase p110α catalytic subunit (PI3Kα, encoded by PIK3CA) that is presented by HLA-A*03:01 (HLA-A3) ([15]). The neoantigen results from substitution of a leucine for histidine at the first primary anchor (position 2; sequence […] → […]). […] Although the crystallographic struct ...

[4] = system: T cell clones; conditions: numerous T cell clones; cited from earlier work
Text: (§1) Even though less potency is expected from the WT peptide given its weaker binding to HLA-A3, in other instances where peptides modified at the first primary anchor have been examined, weaker binding peptides have still elicited quantifiable functional responses ([16], [23], [24]).

[5] = system: MHC; conditions: cited from earlier work
Text: as §1

| Compound | cytokine (TNF-α) secretion by TCR3 T cells [1] | cytokine (TNF-α) secretion by TCR4 T cells [2] | T cell destruction of tumors [3] | T cell responses [4] | MHC binding affinity compared with PIK3CA peptides [5] |
| --- | --- | --- | --- | --- | --- |
| CC(C)C[C@H](NC(=O)[C@H](C)N)C(=O)N[C@@H](Cc1c[nH]cn1)C(=O)NCC(=O)NCC(=O)N[C@@H](Cc1c[nH]c2ccccc12)C(=O)N[C@H](C(=O)N[C@H](C(=O)N[C@@H](CCCCN)C(=O)O)[C@@H](C)O)[C@@H](C)O [neoantigen] | well-recognized | well-recognized | drives T cell destruction of PIK3CA mutant tumors | – | – |
| AAGIGILTV [native MART-1 nonamer, native MART-1 shared tumor antigen nonamer] | – | – | – | measurable responses | nearly the same as the PIK3CA WT peptide |
